Laboratory results as given in PubChem BioAssay AID1346428 (National Center for Advancing Translational Sciences (NCATS), 2018).
Only a part is listed here, and it is no random draw. Activity calls are given as the source filed them.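 Rule for the calls: active = activation of at least 60% and not above a set upper limit (about 1 call in 100 departs from these limits); inconclusive = activation of 40% to 60%, or above that upper limit; inactive = activation under 40%.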

The chains behind the UniProt entries cited, without tags or fusion partners.
UniProt O75388, whole entry: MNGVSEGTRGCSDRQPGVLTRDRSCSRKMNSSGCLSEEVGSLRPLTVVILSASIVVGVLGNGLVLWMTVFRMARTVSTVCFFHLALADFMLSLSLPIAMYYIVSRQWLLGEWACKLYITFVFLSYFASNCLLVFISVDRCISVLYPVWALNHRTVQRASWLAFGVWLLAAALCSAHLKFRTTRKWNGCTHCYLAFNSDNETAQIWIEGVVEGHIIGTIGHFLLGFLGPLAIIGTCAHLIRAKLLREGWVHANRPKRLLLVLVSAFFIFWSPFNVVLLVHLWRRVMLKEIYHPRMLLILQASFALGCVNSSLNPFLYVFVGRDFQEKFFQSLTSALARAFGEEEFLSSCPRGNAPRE

Biological target: Probable G-protein coupled receptor 32 (Homo sapiens) (UniProt O75388)
Assay: qHTS for Agonists of Human Resolvin D1 Receptor DRV1; note: 0% is about no effect
Details: CHO-K1 GPR32 beta-arrestin PathHunter luminescence, 90 min; at 76.9 µM; stronger effect = higher value; zero percent set by DMSO-only wells

SMILES | activation
CCC(=O)N(c1ccccc1)C1(COC)CCN(CCn2nnn(CC)c2=O)CC1 | inactive: -14.4%
CCC(=O)N(c1ccccc1)C1(COC)CCN(CCc2cccs2)CC1 | inactive: -1.63%
CN(CCCl)CCCl | inactive: -23.2%
